Protein sequences, listed by entry. Tags and fused reporters are not part of them. Residues count along the entry.
UniProt Q16881, 151-649 limits assumed: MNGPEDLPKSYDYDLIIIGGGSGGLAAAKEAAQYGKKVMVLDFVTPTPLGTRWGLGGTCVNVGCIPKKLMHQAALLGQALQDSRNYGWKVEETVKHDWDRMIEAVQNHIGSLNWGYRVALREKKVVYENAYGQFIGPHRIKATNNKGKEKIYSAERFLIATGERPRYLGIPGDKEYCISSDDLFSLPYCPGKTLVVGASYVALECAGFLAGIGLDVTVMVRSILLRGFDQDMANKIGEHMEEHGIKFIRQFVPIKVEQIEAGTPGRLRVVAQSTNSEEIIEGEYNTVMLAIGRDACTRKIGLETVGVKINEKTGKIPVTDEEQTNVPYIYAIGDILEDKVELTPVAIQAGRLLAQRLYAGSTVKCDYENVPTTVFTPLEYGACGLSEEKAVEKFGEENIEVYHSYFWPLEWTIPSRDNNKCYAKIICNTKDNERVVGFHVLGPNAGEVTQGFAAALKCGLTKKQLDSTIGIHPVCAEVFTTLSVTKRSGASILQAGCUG

In patent US20120226031A1, “PALMARUMYCIN BASED INHIBITORS OF THIOREDOXIN AND METHODS OF USING SAME” (ARIZONA BOARD OF REGENTS, ACTING ON BEHALF OF THE …, priority 2005, published 2012):

Key:
[1] = target: human thioredoxin reductase (Homo sapiens, UniProt Q16881); experiment: Inhibition of purified human thioredoxin reductase (TrxR/TR); settings: read-out: TrxR inhibitory activity IC50; Table 1; tested form: TFA salt
[2] = test system: MCF-7 human breast cancer cells; experiment: MCF-7 breast cancer cell growth inhibition; settings: read-out: MCF-7 growth inhibition IC50; Table 1; tested form: TFA salt

`NCC(=O)Oc1ccc2c3c(cccc13)OC1(C=CC(=O)c3ccccc31)O2` (centres unmarked) was tested, and the IC50 [1] was 1800 nM and the IC50 [2] was 2400 nM.
